Earlier results on 1 substance are cited in EP1657250A1, “HLA-A *01-binding T-cell epitope of WT1” (Charité - Universitätsmedizin Berlin, priority 2004, dated 2006).

The chains behind the UniProt entries cited, without tags or fusion partners. Where a name states a change or a piece, a line headed by the entry shows the natural chain unless it says otherwise.
UniProt P19544: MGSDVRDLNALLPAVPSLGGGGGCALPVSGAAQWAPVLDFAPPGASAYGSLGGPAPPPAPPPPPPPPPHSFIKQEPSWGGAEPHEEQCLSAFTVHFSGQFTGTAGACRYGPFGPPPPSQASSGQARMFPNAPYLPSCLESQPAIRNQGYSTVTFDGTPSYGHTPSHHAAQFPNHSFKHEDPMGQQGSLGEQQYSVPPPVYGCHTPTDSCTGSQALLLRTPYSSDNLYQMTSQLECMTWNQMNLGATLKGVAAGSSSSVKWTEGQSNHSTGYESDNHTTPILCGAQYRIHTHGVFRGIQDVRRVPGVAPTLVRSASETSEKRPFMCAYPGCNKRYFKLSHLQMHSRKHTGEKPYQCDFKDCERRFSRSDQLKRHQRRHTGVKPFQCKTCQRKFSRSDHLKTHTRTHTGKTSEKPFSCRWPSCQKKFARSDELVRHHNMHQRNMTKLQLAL

This series has as its system relapsed acute myeloid leukaemia (AML). The conditions noted are these: cited from earlier work.

In the case of “WT1.126-134: known HLA-A*0201-binding WT1 epitope (RMFPNAPYL; UniProt P19544 126-134, looked up, fragment)”, the “clinical outcome associated with T-cell response” value (a patient with relapsed AML) was “complete remission”. In addition, where the note is “vaccination of patients”, the “T-cell responses induced by vaccination” value is reported as “high frequency T-cell responses”.
